This data set deals with healthy female volunteers.

Regarding `Cc1cc2c(s1)Nc1ccccc1N=C2N1CCN(C)CC1` [olanzapine, 2-methyl-10-(4-methyl-1-piperazinyl)-4H-thieno-[2,3-b][1,5]benzo-diazepine], the “Incidence of sedation on day 1, comparison with placebo” value (all oral doses (2, 4, 6, 8 mg)) is “significantly greater in all doses of olanzapine than placebo”. For the same molecule, the “Sedation severity scores on day 1, comparison with placebo” value (all oral doses (2, 4, 6, 8 mg), scale 1=no sedation, 10=severe sedation) is recorded as “significantly different (higher sedation) than placebo”. Besides, where the note is “oral doses 2-8 mg”, the “Dose dependence of sedation in the first day of dosing” value is “NOT dose dependent”.

Source of the values: patent publication US12383510B2 (Starton Therapeutics, Inc., priority 2020, dated 2025).
